Assay results from patent publication US10780090B2, “Heteroaryl compounds useful as inhibitors of SUMO activating enzyme” (Millennium Pharmaceuticals, Inc., priority 2014, dated 2020).

By UniProt entry, the sequences of proteins in these tests, tags left out.
UniProt Q9UBT2, whole entry: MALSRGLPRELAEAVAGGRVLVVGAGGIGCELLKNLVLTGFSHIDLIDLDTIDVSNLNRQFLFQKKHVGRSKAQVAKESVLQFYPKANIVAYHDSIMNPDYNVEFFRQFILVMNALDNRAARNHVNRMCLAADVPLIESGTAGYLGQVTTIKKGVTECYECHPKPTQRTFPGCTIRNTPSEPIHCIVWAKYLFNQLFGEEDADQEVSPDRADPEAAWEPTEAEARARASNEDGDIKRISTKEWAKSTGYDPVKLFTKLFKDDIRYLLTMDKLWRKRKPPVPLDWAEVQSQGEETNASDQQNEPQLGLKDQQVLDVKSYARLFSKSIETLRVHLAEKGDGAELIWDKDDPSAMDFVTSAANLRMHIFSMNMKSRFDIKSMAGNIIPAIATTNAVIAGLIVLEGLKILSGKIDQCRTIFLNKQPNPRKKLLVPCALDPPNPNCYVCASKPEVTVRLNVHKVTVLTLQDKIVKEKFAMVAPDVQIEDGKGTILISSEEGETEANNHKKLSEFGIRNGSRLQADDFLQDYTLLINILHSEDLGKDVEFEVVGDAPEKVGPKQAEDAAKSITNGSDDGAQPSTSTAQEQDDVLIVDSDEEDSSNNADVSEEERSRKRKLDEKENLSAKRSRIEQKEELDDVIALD
UniProt Q9UBE0, whole entry partner: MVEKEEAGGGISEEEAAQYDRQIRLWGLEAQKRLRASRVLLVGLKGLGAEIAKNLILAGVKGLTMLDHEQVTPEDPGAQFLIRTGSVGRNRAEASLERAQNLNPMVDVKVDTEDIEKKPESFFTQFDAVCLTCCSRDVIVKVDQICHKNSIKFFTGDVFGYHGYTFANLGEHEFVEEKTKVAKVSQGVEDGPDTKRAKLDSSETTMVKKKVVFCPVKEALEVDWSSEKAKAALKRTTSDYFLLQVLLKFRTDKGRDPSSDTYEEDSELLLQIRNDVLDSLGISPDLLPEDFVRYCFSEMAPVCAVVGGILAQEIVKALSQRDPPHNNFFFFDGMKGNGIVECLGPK

Molecular target: recombinant human SAE enzyme (Homo sapiens (Human), UniProt Q9UBT2)
Assay: SAE HTRF enzyme assay
Type: biochemical
Details: Concentration 0.111 μM

Compound | Percent Inhibition [%]
CC(N)(c1cccc(Cl)c1)c1csc(C(=O)c2cncnc2N[C@@H]2C[C@H](COS(N)(=O)=O)[C@@H](O)[C@H]2O)c1 (single isomer, unassigned) | 99
C#Cc1ccc2c(c1)C(c1cc(C(=O)c3cncnc3N[C@@H]3C[C@H](COS(N)(=O)=O)[C@@H](O)C3)sc1C)OCC2 (single isomer, unassigned) | 98
NS(=O)(=O)OC[C@H]1C[C@@H](Nc2ncncc2C(=O)c2cc(C(O)c3cccc(Cl)c3)c(Cl)s2)C[C@@H]1O (single isomer, unassigned) | 99

Same assay, conditions: class symbols A/B/C

Compound | pIC50
CC(N)(c1cccc(Cl)c1)c1csc(C(=O)c2cncnc2N[C@@H]2C[C@H](COS(N)(=O)=O)[C@@H](O)[C@H]2O)c1 (single isomer, unassigned) | > 8.00
C#Cc1ccc2c(c1)C(c1cc(C(=O)c3cncnc3N[C@@H]3C[C@H](COS(N)(=O)=O)[C@@H](O)C3)sc1C)OCC2 (single isomer, unassigned) | > 8.00
NS(=O)(=O)OC[C@H]1C[C@@H](Nc2ncncc2C(=O)c2cc(C(O)c3cccc(Cl)c3)c(Cl)s2)C[C@@H]1O (single isomer, unassigned) | > 8.00

pIC50: −log10 of the molar value.
